# Results as given in PubChem BioAssay AID652115 (Broad Institute, 2013).
# Chains of the proteins cited; added tags and fusions are not shown. Lines headed by an entry give the natural chain unless they say otherwise; changes in a name come on top.
# UniProt Q9NXA8: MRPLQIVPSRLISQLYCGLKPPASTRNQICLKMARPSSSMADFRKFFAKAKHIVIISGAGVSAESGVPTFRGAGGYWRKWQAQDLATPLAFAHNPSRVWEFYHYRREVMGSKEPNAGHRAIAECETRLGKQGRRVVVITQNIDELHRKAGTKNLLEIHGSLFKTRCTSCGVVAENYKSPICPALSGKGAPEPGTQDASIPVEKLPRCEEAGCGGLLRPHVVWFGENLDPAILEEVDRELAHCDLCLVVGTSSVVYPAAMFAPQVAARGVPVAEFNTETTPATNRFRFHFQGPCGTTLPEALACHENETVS
# The entries are a selection whose mix differs from that of the whole data set. Calls of active or inactive are those of the source. Rule as the data show it: active = inhibition above about 15%; inconclusive = no clear call, values can overlap the other calls; inactive = below that.
# Target: NAD-dependent protein deacylase sirtuin-5, mitochondrial (Homo sapiens) (UniProt Q9NXA8)
# Assay: blockers of sirtuin-5 deacylase activity – biochemical, fluorescence imaging, single point, set 5, primary screen (AID 652115)
# Conditions: Purified SirT5, succinyl-peptide AMC, trypsin-coupled fluorescence; at 15 µM; hits give high values
row,Compound,inhibition
1,O=[N+]([O-])c1cc([N+](=O)[O-])c(CCNc2ccccc2)c([N+](=O)[O-])c1,inactive: -5.14%
2,Cc1ccc(NP(=O)(Oc2ccccc2)Oc2ccccc2)nc1,inactive: 0.063%
3,COc1ccc(C2=NCC(CBr)S2)cc1 (stereo not given),inactive: 3.42%
4,CC(C)=N/N=C(\N)N[N+](=O)[O-],inactive: -0.753%
5,CC(C)c1nc(Nc2ccccc2)n(P(=O)(N(C)C)N(C)C)n1,inactive: -0.401%
6,c1cc(-c2nn[nH]n2)ccc1-c1nn[nH]n1,inactive: -8.03%
7,Nc1ccc([As](=O)(O)c2ccc(N)cc2)cc1,inactive: -3.12%
8,CCN(/C(=N/P(=O)(N1CCOCC1)N1CCOCC1)N1CCOCC1)c1ccc(OC)cc1,inactive: 0.427%
9,O=C(Nc1cc([As](=O)(O)O)ccc1O)c1ccccc1,inactive: 0.778%
10,O=P1(N(CCCl)CCCl)OCCCS1 (stereo not given),inactive: -0.085%
11,O=[N+]([O-])c1cccc(NC2=NCC(CBr)S2)c1 (stereo not given),inactive: 0.57%
12,COC(=O)C1(C)COP(=O)(Nc2ccccc2)OC1 (stereo not given),inactive: -2.42%
13,O=C(O)CNc1ccc([As](=O)(O)O)cc1,inactive: -3.64%
14,CC(C)(C)C(=O)NC(Sc1ccncn1)C(Cl)(Cl)Cl (stereo not given),inactive: -0.7%
15,O=[N+]([O-])c1ncn(CCn2ncnc2[N+](=O)[O-])n1,inactive: -1.19%
16,Cc1ccc(NP(=O)(Oc2ccccc2F)Oc2ccccc2F)nc1,inactive: -1.86%
17,CN(C(=O)Cc1ccc(Cl)c(Cl)c1)[C@H]1CCCC[C@@H]1N1CCCC1,inactive: -6.64%
18,O=C(O)c1ccccc1[As](=O)(O)O,inactive: -2.91%
19,CC(=O)Nc1ccc([As](=O)(O)O)cc1,inactive: -5.27%
20,CN(C)P(=O)(N(C)C)n1c(Nc2ccccc2)nnc1-c1ccccc1,inactive: -2.9%
21,O=P(Nc1nc2ccc(Cl)cc2s1)(c1ccccc1)c1ccccc1,inactive: 1.7%
22,Nc1cccc2ccc([As](=O)(O)O)cc12,inactive: -0.612%
23,Cc1ccc(OP(=O)(Nc2nccs2)Oc2ccc(C)cc2)cc1,inactive: -1.69%
24,COc1ccccc1OP(=O)(Nc1ccc(C)cn1)Oc1ccccc1OC,active: 16.3%
25,Clc1ccc(Cl)c(NC2=NCC(CBr)S2)c1 (stereo not given),inactive: -3.47%

row,Compound,inhibition
1,NC(=O)c1cc([N+](=O)[O-])cc([N+](=O)[O-])c1N,inactive: 6.07%
2,Cc1ccc(N/C(=N/P(=O)(N2CCOCC2)N2CCOCC2)N2CCOCC2)cc1,inactive: -3.06%
3,CN(C(=O)Cc1ccc(Cl)c(Cl)c1)[C@H]1CCCC[C@H]1N1CCCC1,inactive: -5.52%
4,CC(C)CC(=O)NC(Sc1ccc(Cl)cc1)C(Cl)(Cl)Cl (stereo not given),inactive: -1.8%
5,Nc1cc(N)c2nonc2c1[N+](=O)[O-],inactive: -3.29%
6,O=C(NC(Sc1ccncn1)C(Cl)(Cl)Cl)c1ccccc1 (stereo not given),inactive: -9.15%
7,CCc1cc(O)c([N+](=O)[O-])c(C)c1[N+](=O)[O-],inactive: -3.01%
8,CC(C)(C)C(=O)NC(Sc1ccccc1)C(Cl)(Cl)Cl (stereo not given),inactive: -0.167%
9,CCOc1ccc(C2=NCC(CBr)S2)cc1 (stereo not given),inactive: -2.12%
10,CC(=O)Nc1ccc(Oc2c([N+](=O)[O-])cc([N+](=O)[O-])cc2[N+](=O)[O-])cc1,inactive: -0.195%
11,CC(=O)Nc1ccc([As](=O)(O)O)c(O)c1,inactive: -3.59%
12,COC(=O)C1(C)COP(=O)(NCc2ccccc2)OC1 (stereo not given),inactive: 2.41%
13,N#C/C(=C\c1ccc(N(CCBr)CCBr)cc1)C(N)=O,inactive: 1.18%
14,CC(=O)c1ccc(N2CC2c2ccncc2)cc1 (stereo not given),inactive: 1.15%
15,C[C@@H]1C=CCP(=O)(Oc2ccccc2)O1 (stereo not given in full),inactive: -1.1%
16,C[C@H]1OP(=O)(Oc2ccccc2)C[C@@H]2O[C@@H]21 (stereo not given in full),inactive: 0.118%
17,Cc1ccccc1CN(C)C(=O)COC(=O)C(O)(c1ccccc1)c1ccccc1,inactive: 1.22%
18,O=P1(N(CCCl)CCCl)OCCC2CCCCN21 (stereo not given),inactive: -0.698%
19,CCNC(=S)/N=C(\N)N[N+](=O)[O-],inactive: 0.332%
20,O=C(NC1CCS(=O)(=O)C1)NP(=S)(Oc1ccccc1)Oc1ccccc1 (stereo not given),inactive: 1.35%
21,Cc1ccc(NP(=O)(Oc2cccc(C)c2)Oc2cccc(C)c2)nc1,inactive: -7.34%
22,c1ccc(-c2nn[nH]n2)c(-c2nn[nH]n2)c1,inactive: -0.054%
23,CN(C)C(=O)Oc1noc2ccccc12,inactive: -2.54%
24,O=c1c2cc([N+](=O)[O-])ccc2[nH]c2c([N+](=O)[O-])cc([N+](=O)[O-])cc12,inactive: -1.46%
25,Cc1ccccc1OP(=O)(Nc1ccccn1)Oc1ccccc1C,inactive: -6.76%

row,Compound,inhibition
1,CC(NC(=O)COC(=O)C(O)(c1ccccc1)c1ccccc1)c1ccccc1 (stereo not given),inactive: -4.88%
2,Cc1ccc(OP(=O)(Nc2ccccn2)Oc2ccc(C)cc2)cc1,inactive: -3.28%
3,O=C(OC1CN2CCC1CC2)c1ccccc1 (stereo not given),inactive: 1.73%
4,O=P(Nc1nc2ccccc2s1)(c1ccccc1)c1ccccc1,inactive: 0.792%
5,Nc1ccc(CCCCOc2ccccc2)cc1,inactive: -0.338%
6,O=P(Nc1ccccn1)(c1ccc(Br)cc1)c1ccc(Br)cc1,inactive: -4.53%
7,CN(C)C1(CNC(=O)c2ccc(Cl)c(S(N)(=O)=O)c2)CCCCC1,inactive: -2.46%
8,Nc1ccc([As](=O)(O)c2ccc([N+](=O)[O-])cc2)cc1,inactive: -0.981%
9,C(Cc1nn[nH]n1)Cc1nn[nH]n1,inactive: -4.77%
10,O=[N+]([O-])c1ncn(CCn2cnc([N+](=O)[O-])n2)n1,inactive: -3.33%
11,CC(=O)NC(SC(=S)N(C)C)C(Cl)(Cl)Cl (stereo not given),inactive: -6.53%
12,O=[As](O)(c1ccccc1)c1ccc(O)cc1,inactive: -3.52%
13,CC(C)(C)C(=O)NC(Sc1ncccn1)C(Cl)(Cl)Cl (stereo not given),inactive: 1.56%
14,O=P1(N(CCCl)CCCl)NCCC(C(F)(F)F)O1 (stereo not given),inactive: -2.11%
15,CN(CCCl)Cc1cc(Cl)c(NC2=NCCN2)c(Cl)c1,inactive: -4.53%
16,CCOP(=O)(Nc1ccc(C)cn1)OCC,inactive: -2.82%
17,CCOP(=O)(NC(=NC(C)c1ccccc1)NC(C)c1ccccc1)OCC (stereo not given),inactive: -1.08%
18,CCC1=CC2Cc3nc4ccc(Cl)cc4c(N)c3C(C1)C2 (stereo not given),inactive: -2.52%
19,CC(C)/C=N\N=C(\N)N[N+](=O)[O-],inactive: -4.19%
20,CN(C(=O)Cc1ccc(Cl)c(Cl)c1)[C@@H]1CCCC[C@H]1N1CCCC1,inactive: -4.29%
21,COc1ccccc1CNC(=O)COC(=O)C(O)(c1ccccc1)c1ccccc1,inactive: 0.918%
22,O=C(/C=C/c1ccccc1)OC1CN2CCC1CC2 (stereo not given),inactive: -0.277%
23,CC1CCC(C(C)C)C(OP(=O)(Nc2ccccn2)c2ccccc2)C1 (stereo not given),inactive: 2.36%
24,Cc1ccc(C(=O)OC2CN3CCC2CC3)cc1 (stereo not given),inactive: 1.98%
25,NS(=O)(=O)c1cccc(NC(=O)COC(=O)C(O)(c2ccccc2)c2ccccc2)c1,inactive: -0.65%

row,Compound,inhibition
1,O=[As](O)(c1cccs1)c1cccs1,inactive: -3.94%
2,Nc1cccc([As](=O)(O)c2ccccc2)c1,inactive: -0.907%
3,Nc1ccccc1[As](=O)(O)c1ccccc1,inactive: -2.42%
4,O=C(O)COc1ccc([As](=O)(O)O)cc1[N+](=O)[O-],inactive: -3.02%
5,O=P(Nc1nccs1)(Oc1ccccc1)Oc1ccccc1,inactive: -0.572%
6,CCOP1(=S)c2c(C)nn(CCC#N)c2N=C(c2ccccc2F)N1C (stereo not given),inactive: 0.228%
7,CN(C(=O)Cc1ccc(Cl)c(Cl)c1)[C@H]1CC[C@@]2(CCCO2)C[C@@H]1N1CCCC1,inactive: -10.1%
8,CN(C)C(=O)c1cc([N+](=O)[O-])cc2c1-c1c(cc([N+](=O)[O-])cc1[N+](=O)[O-])C2=O,inactive: -0.783%
9,CCOP1(=S)c2c(C)nn(CCC#N)c2N=C(c2ccc(F)cc2)N1C (stereo not given),inactive: -4.68%
10,CN(C(=O)Cc1ccccc1)[C@@H]1CC[C@]2(CCCO2)C[C@H]1N1CCCC1,inactive: -2.68%
11,N#CCCN(C(=O)COC(=O)C(O)(c1ccccc1)c1ccccc1)c1ccc(F)cc1,inactive: -2.5%
12,NC(=O)Nc1ccc([As](=O)(O)O)cc1,inactive: 0.78%
13,O=[As](O)(c1cccc(O)c1)c1cccc(O)c1,inactive: -3.57%
14,CS(=O)(=O)c1ccc(Cl)c(NC(=O)COC(=O)C(O)(c2ccccc2)c2ccccc2)c1,inactive: 1.47%
15,COc1cc(C(=O)NCC2(N3CCOCC3)CCCCC2)cc(Cl)c1OC(C)C,inactive: -1.69%
16,O=[As](O)(O)c1cccnc1,inactive: -1.12%
17,O=C(OC1CN2CCC1CC2)c1ccc(Cl)cc1 (stereo not given),inactive: -1.3%
18,CCOP(=O)(Nc1cccc2ccccc12)OCC,inactive: -6.87%
19,CCCOP(=S)(Nc1nc(N)cc(=O)[nH]1)OCCC,inactive: -1.02%
20,Nc1cccc2c([As](=O)(O)O)cccc12,inactive: -2.31%
21,Cc1ccc(NCCc2c([N+](=O)[O-])cc([N+](=O)[O-])cc2[N+](=O)[O-])cc1,inactive: 2.69%
22,COc1cc(I)ccc1[As](=O)(O)O,inactive: -0.645%
23,COc1ccc2nc(NP(=O)(c3ccccc3)c3ccccc3)sc2c1,inactive: -1.94%
24,COc1ccc(CN2/C(=N\P(=O)(Oc3ccccc3)Oc3ccccc3)Cc3ccccc3C2C2CC2)cc1 (stereo not given),inactive: 6.71%
25,O=P1(N(CCCl)CCCl)Nc2ccccc2N1,inactive: 1.25%
